# Source: PubChem BioAssay AID2099 (Broad Institute, 2009)
# The chains behind the UniProt entries cited, without tags or fusion partners. Where a name states a change or a piece, a line headed by the entry shows the natural chain unless it says otherwise.
# UniProt Q9H3R0: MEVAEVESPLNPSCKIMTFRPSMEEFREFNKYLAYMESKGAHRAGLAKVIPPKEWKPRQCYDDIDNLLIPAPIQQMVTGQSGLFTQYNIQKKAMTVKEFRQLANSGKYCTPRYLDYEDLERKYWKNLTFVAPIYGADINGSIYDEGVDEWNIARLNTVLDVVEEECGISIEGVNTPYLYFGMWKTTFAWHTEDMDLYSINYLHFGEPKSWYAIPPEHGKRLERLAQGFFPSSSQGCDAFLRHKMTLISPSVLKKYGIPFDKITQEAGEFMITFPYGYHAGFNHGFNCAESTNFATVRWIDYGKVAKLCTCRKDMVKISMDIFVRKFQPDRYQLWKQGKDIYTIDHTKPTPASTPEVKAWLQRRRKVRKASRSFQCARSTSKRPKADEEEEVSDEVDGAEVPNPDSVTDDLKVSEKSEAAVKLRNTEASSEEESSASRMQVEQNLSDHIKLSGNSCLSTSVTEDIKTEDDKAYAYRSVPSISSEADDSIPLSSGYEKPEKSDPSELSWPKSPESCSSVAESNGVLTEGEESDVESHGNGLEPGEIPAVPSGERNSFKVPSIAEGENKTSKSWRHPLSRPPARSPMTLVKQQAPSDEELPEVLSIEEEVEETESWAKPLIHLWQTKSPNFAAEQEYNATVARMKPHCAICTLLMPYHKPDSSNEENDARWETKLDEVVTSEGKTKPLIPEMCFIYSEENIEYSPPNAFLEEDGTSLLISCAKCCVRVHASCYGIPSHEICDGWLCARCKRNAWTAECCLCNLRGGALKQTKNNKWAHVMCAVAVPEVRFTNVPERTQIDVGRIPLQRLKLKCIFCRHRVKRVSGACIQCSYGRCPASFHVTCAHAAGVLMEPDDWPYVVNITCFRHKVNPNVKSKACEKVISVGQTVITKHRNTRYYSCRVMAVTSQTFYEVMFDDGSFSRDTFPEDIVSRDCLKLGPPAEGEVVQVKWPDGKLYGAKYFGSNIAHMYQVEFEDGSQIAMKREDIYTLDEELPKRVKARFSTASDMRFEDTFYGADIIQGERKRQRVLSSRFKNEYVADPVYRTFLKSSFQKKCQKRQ
# The entries are a selection whose mix differs from that of the whole data set. The source made the active and inactive calls.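 Rule for the calls: active = more than half of a compound's replicate wells show inhibition beyond 50%, single wells judged on their own value; inconclusive = some, but no more than half, of replicates pass 50% inhibition; inactive = no replicate passes 50% inhibition.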
# Target: Lysine-specific demethylase 4C (Homo sapiens) (UniProt Q9H3R0)
# Experiment: JMJD2C H3K9me3 demethylation blockers – biochemical, fluorescence, DELFIA europium, primary screen (AID 2099);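 note: signal counts dimethyl H3K9 product captured on neutravidin plate; 0% = median of DMSO wells and 100% = 0.3 times that DMSO median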
# Details: GST-JMJD2C(1-420) H3K9me3 demethylation, at 2.35 µM, stronger effect = higher value
row,SMILES,inhibition
1,O=C(OC1CN2CCC1CC2)c1ccc(Cl)cc1 (stereo not given),inactive: 6.87%
2,O=[As](O)(O)c1cccnc1,inactive: -3.63%
3,COc1cc(C(=O)NCC2(N3CCOCC3)CCCCC2)cc(Cl)c1OC(C)C,inactive: -8.48%
4,CS(=O)(=O)c1ccc(Cl)c(NC(=O)COC(=O)C(O)(c2ccccc2)c2ccccc2)c1,inactive: 39.2%
5,Cc1cccc(OCC(=O)OC2CN3CCC2CC3)c1 (stereo not given),inactive: -9.59%
6,O=[As](O)(c1cccc(O)c1)c1cccc(O)c1,inactive: 13.6%
7,Cc1ccc(NCCc2c([N+](=O)[O-])cc([N+](=O)[O-])cc2[N+](=O)[O-])cc1,inactive: 1.57%
8,Nc1cccc2c([As](=O)(O)O)cccc12,inactive: 3.17%
9,CCCOP(=S)(Nc1nc(N)cc(=O)[nH]1)OCCC,inactive: 10.4%
10,COc1cc(C2NCCC3(OCCO3)C2(C)C)cc(OC)c1OC (stereo not given),inactive: 71.8%
11,CCOP(=O)(Nc1cccc2ccccc12)OCC,inactive: -5.22%
12,CCOP1(=S)c2c(C)nn(CCC#N)c2N=C(c2ccccc2F)N1C (stereo not given),inactive: -1.63%
13,O=P(Nc1nccs1)(Oc1ccccc1)Oc1ccccc1,inactive: 0.298%
14,O=P(Nc1nccs1)(c1ccccc1)c1nc2ccccc2s1 (stereo not given),inactive: -1.7%
15,CS(=O)(=O)c1cc([N+](=O)[O-])c2no[n+]([O-])c2c1,inactive: -0.779%
16,O=C(O)COc1ccc([As](=O)(O)O)cc1[N+](=O)[O-],inactive: -2.07%
17,Nc1ccccc1[As](=O)(O)c1ccccc1,inactive: 22.8%
18,N#CCCN(C(=O)COC(=O)C(O)(c1ccccc1)c1ccccc1)c1ccc(F)cc1,inactive: -0.18%
19,CCOP1(=S)c2c(C)nn(CCC#N)c2N=C(c2ccc(F)cc2)N1C (stereo not given),inactive: 2.64%
20,CN(C(=O)Cc1ccccc1)[C@@H]1CC[C@]2(CCCO2)C[C@H]1N1CCCC1,inactive: -2.49%
21,O=[N+]([O-])c1ccc2c(c1)nnn2O,inactive: -13.6%
22,CN(C)C(=O)c1cc([N+](=O)[O-])cc2c1-c1c(cc([N+](=O)[O-])cc1[N+](=O)[O-])C2=O,inactive: -0.101%
23,CN(C(=O)Cc1ccc(Cl)c(Cl)c1)[C@H]1CC[C@@]2(CCCO2)C[C@@H]1N1CCCC1,inactive: 8.45%
24,Cc1nn(-c2ccccc2)c2c1P(=O)(N1CCOCC1)N(C)C(c1ccccc1)=N2 (stereo not given),inactive: 135%
25,Cc1ccc(C(=O)OC2CN3CCC2CC3)cc1 (stereo not given),inactive: -11.4%

row,SMILES,inhibition
1,CC1CCC(C(C)C)C(OP(=O)(Nc2ccccn2)c2ccccc2)C1 (stereo not given),inactive: -3.37%
2,CN(C)C1(CNC(=O)c2ccc(S(C)(=O)=O)cc2)CCCCC1,inactive: 2.33%
3,O=C(/C=C/c1ccccc1)OC1CN2CCC1CC2 (stereo not given),inactive: -3.28%
4,O=P1(Nc2ncccn2)COc2ccccc2OC1,inactive: 11.8%
5,Nc1cccc([As](=O)(O)c2ccccc2)c1,inactive: -6.92%
6,Cc1ccc(OCC(=O)OC2CN3CCC2CC3)cc1 (stereo not given),active: 55%
7,O=[As](O)(c1cccs1)c1cccs1,inactive: -5.63%
8,NS(=O)(=O)c1cccc(NC(=O)COC(=O)C(O)(c2ccccc2)c2ccccc2)c1,inactive: -2.23%
9,O=P1(Nc2ccc(Br)cn2)COc2ccccc2OC1,inactive: 8.06%
10,CCC1=CC2Cc3nc4ccc(Cl)cc4c(N)c3C(C1)C2 (stereo not given),inactive: -5.41%
11,O=P1(Nc2ccccn2)COc2ccccc2OC1,inactive: -10.7%
12,CCOP(=O)(NC(=NC(C)c1ccccc1)NC(C)c1ccccc1)OCC (stereo not given),inactive: -17.4%
13,CN(CCCl)Cc1cc(Cl)c(NC2=NCCN2)c(Cl)c1,inactive: 5.41%
14,Clc1n[nH]nc1-c1nn[nH][15n]1,inactive: 9.37%
15,CC(C)(C)C(=O)NC(Sc1ncccn1)C(Cl)(Cl)Cl (stereo not given),inactive: 4.11%
16,COc1ccccc1CNC(=O)COC(=O)C(O)(c1ccccc1)c1ccccc1,inactive: 0.0574%
17,CN(C(=O)Cc1ccc(Cl)c(Cl)c1)[C@@H]1CCCC[C@H]1N1CCCC1,inactive: 7.93%
18,CC(C)/C=N\N=C(\N)N[N+](=O)[O-],inactive: -2.05%
19,O=[As](O)(c1ccccc1Br)c1ccccc1Br,inactive: 5.21%
20,CC1(CBr)Cn2c(nc3ccccc3c2=O)S1 (stereo not given),inactive: 2.25%
21,COP1(=S)c2c(C)nn(CCC#N)c2N=C(c2ccc(F)cc2)N1C (stereo not given),inactive: -1.14%
22,O=C(COc1ccccc1)OC1CN2CCC1CC2 (stereo not given),inactive: 11.3%
23,O=C(Nc1ccncc1[N+](=O)[O-])c1ccc([N+](=O)[O-])cc1[N+](=O)[O-],inactive: -16.3%
24,O=C(OC1CN2CCC1CC2)c1cccc([N+](=O)[O-])c1 (stereo not given),inactive: 3.68%
25,CCOC(=O)c1ccc(NC(=O)C(C)(CCl)SC)cc1 (stereo not given),inactive: 27.6%

row,SMILES,inhibition
1,CCC(C)N(CC(C)C)C(=S)SC(NC(C)=O)C(Cl)(Cl)Cl (stereo not given),inactive: 21.5%
2,CCOC(=O)Nc1ccc([As](=O)(O)O)c(O)c1,inactive: 4.94%
3,CCCCOc1ccc(C(=O)NCC2(N3CCCCC3)CCCCC2)cc1OC,inactive: -10.3%
4,Cc1cc(SC(NC(=O)c2ccccc2)C(Cl)(Cl)Cl)nc(C(C)C)n1 (stereo not given),inactive: 3.16%
5,CCOC(=O)Nc1cccc([As](=O)(O)O)c1,inactive: -2.03%
6,Cc1cc(SC(NC=O)C(Cl)(Cl)Cl)ncn1 (stereo not given),inactive: 9.23%
7,O=P(Nc1ccccn1)(c1cccc2ccccc12)c1cccc2ccccc12,inactive: 9.71%
8,O=[N+]([O-])c1ccc(Nc2ccc(Oc3ccc([N+](=O)[O-])cc3[N+](=O)[O-])cc2)c([N+](=O)[O-])c1,inactive: -1.6%
9,O=[As](O)(c1ccc(O)cc1)c1ccccc1O,inactive: 8.47%
10,COc1cc(C(=O)NCC2(N3CCOCC3)CCCCC2)ccc1OCC(C)C,inactive: 5.7%
11,Cc1ccc(OP(=O)(Nc2ccc([N+](=O)[O-])cn2)Oc2ccc(C)cc2)cc1,inactive: 2.97%
12,Cc1ccc2nc3c(c(C)c2c1)CC(C(Cl)Cl)S3 (stereo not given),inactive: 6.73%
13,ClCCSc1nnc(-c2cccnc2)o1,inactive: 6.16%
14,CC(C)c1ccc(OP(=O)(Nc2ccccn2)Oc2ccccc2F)cc1 (stereo not given),inactive: 1.53%
15,CC(C)NC(=O)NP(=O)(Oc1ccccc1)Oc1ccccc1,inactive: -15.8%
16,CCN(CC)C(=S)SC(NC=O)C(Cl)(Cl)Cl (stereo not given),inactive: -9.19%
17,O=[N+]([O-])c1cc([N+](=O)[O-])c(-c2ccn[nH]2)s1,inactive: 0.614%
18,Cc1c2c(nc3ccccc13)SC(C(Cl)Cl)C2 (stereo not given),inactive: 0.498%
19,O=C(OC1CN2CCC1CC2)C12CC3CC(CC(C3)C1)C2 (stereo not given),inactive: -8.2%
20,Cc1cc(=O)[nH]c(N[N+](=O)[O-])n1,inactive: -7.05%
21,COc1ccc2nc(NP(=O)(c3ccccc3)c3ccccc3)sc2c1,inactive: -9.04%
22,COc1cc(I)ccc1[As](=O)(O)O,inactive: 2.55%
23,COc1ccc(N/C(=N/P(=O)(N2CCOCC2)N2CCOCC2)N2CCOCC2)cc1,inactive: -0.831%
24,CN(C(=O)Cc1ccc(Cl)c(Cl)c1)[C@H]1CCCC[C@H]1N1CCCC1,inactive: -0.212%
25,Cc1ccc(N/C(=N/P(=O)(N2CCOCC2)N2CCOCC2)N2CCOCC2)cc1,inactive: -0.0545%

row,SMILES,inhibition
1,NC(=O)c1cc([N+](=O)[O-])cc([N+](=O)[O-])c1N,inactive: -0.725%
2,CN1CCCC(OC(=O)C(c2ccccc2)c2ccccc2)C1 (stereo not given),inactive: -29.1%
3,Clc1ccc(Cl)c(NC2=NCC(CBr)S2)c1 (stereo not given),inactive: -139%
4,COc1ccccc1OP(=O)(Nc1ccc(C)cn1)Oc1ccccc1OC,inactive: 1.26%
5,Cc1ccc(OP(=O)(Nc2nccs2)Oc2ccc(C)cc2)cc1,inactive: -4.55%
6,Oc1ccccc1CNc1ccccn1,inactive: -0.53%
7,O=C(NC(Sc1ccncn1)C(Cl)(Cl)Cl)c1ccccc1 (stereo not given),inactive: 3.13%
8,Cc1c2non([O-])c-2c(C)[n+](=O)[n+]1[O-],inactive: -3.59%
9,Nc1cc(N)c2nonc2c1[N+](=O)[O-],inactive: 28.4%
10,CC(C)CC(=O)NC(Sc1ccc(Cl)cc1)C(Cl)(Cl)Cl (stereo not given),inactive: -4.56%
11,O=P(Nc1nc2ccc(Cl)cc2s1)(c1ccccc1)c1ccccc1,inactive: 1.37%
12,CC(=O)Nc1ccc([As](=O)(O)O)cc1,inactive: -2.51%
13,O=C(O)c1ccccc1[As](=O)(O)O,inactive: 7.17%
14,Cc1cc(SC(NC(=O)c2ccc(F)cc2)C(Cl)(Cl)Cl)ncn1 (stereo not given),inactive: 4.09%
15,CCOP(=O)(Nc1ccccc1)OCC,inactive: -6.22%
16,CN(C(=O)Cc1ccc(Cl)c(Cl)c1)[C@H]1CCCC[C@@H]1N1CCCC1,inactive: 6.77%
17,Cc1ccc(NP(=O)(Oc2ccccc2F)Oc2ccccc2F)nc1,inactive: -10.6%
18,O=[N+]([O-])c1cc([N+](=O)[O-])c(CCN2CCOCC2)c([N+](=O)[O-])c1,inactive: 7.52%
19,Nc1cccc2ccc([As](=O)(O)O)cc12,inactive: -4.41%
20,CCN(N=Nc1nonc1N)c1nonc1N,inactive: 6.26%
21,O=C(Nc1cc([As](=O)(O)O)ccc1O)c1ccccc1,inactive: -12.9%
22,O=[N+]([O-])c1ncn(CCn2ncnc2[N+](=O)[O-])n1,inactive: 7.8%
23,CC(C)(C)C(=O)NC(Sc1ccncn1)C(Cl)(Cl)Cl (stereo not given),inactive: -5%
24,O=C(O)CNc1ccc([As](=O)(O)O)cc1,inactive: -0.809%
25,O=[N+]([O-])c1cccc(NC2=NCC(CBr)S2)c1 (stereo not given),inactive: -3.96%
